ChEMBL document CHEMBL6074678, “Selectively Antagonizing the NOD1-Mediated Inflammatory Signaling Pathway Mitigates the Gastric Inflammation Induced by Helicobacter pylori Infection” (J Med Chem, 2024)

Amino acid sequences for entries named in this document (tags omitted).
UniProt O43353, whole entry: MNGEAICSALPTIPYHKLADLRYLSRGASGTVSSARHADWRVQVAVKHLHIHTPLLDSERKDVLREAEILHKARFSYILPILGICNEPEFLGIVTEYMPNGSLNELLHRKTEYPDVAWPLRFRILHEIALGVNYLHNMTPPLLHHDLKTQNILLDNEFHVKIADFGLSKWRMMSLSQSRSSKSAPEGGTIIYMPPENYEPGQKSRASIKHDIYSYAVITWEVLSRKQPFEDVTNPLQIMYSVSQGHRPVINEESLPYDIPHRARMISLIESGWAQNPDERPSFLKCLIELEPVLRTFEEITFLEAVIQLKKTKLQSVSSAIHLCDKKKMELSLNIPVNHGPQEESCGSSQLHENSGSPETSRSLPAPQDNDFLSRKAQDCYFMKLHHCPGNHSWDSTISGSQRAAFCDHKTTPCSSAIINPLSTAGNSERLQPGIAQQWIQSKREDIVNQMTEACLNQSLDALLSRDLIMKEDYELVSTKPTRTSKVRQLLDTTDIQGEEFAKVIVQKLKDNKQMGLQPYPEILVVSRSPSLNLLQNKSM
UniProt O60603, whole entry: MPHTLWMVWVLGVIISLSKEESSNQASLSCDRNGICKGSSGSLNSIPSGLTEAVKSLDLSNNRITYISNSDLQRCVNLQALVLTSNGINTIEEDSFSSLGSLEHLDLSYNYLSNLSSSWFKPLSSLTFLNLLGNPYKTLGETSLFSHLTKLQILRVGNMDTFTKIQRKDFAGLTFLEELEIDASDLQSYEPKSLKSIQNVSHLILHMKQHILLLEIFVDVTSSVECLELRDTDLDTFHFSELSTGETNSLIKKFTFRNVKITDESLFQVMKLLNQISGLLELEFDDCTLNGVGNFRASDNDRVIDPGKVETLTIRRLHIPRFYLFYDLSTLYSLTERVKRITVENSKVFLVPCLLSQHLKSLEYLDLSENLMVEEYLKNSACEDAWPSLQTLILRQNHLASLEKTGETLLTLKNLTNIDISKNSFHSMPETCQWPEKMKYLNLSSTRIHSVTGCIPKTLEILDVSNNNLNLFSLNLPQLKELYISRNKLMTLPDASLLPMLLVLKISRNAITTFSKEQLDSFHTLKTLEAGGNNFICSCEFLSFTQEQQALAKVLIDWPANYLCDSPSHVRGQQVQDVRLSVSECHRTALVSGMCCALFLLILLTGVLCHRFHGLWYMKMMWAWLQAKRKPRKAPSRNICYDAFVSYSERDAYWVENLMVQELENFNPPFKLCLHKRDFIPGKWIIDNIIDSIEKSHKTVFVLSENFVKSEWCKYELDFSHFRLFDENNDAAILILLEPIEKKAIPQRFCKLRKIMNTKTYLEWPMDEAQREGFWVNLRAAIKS
UniProt O00206, whole entry: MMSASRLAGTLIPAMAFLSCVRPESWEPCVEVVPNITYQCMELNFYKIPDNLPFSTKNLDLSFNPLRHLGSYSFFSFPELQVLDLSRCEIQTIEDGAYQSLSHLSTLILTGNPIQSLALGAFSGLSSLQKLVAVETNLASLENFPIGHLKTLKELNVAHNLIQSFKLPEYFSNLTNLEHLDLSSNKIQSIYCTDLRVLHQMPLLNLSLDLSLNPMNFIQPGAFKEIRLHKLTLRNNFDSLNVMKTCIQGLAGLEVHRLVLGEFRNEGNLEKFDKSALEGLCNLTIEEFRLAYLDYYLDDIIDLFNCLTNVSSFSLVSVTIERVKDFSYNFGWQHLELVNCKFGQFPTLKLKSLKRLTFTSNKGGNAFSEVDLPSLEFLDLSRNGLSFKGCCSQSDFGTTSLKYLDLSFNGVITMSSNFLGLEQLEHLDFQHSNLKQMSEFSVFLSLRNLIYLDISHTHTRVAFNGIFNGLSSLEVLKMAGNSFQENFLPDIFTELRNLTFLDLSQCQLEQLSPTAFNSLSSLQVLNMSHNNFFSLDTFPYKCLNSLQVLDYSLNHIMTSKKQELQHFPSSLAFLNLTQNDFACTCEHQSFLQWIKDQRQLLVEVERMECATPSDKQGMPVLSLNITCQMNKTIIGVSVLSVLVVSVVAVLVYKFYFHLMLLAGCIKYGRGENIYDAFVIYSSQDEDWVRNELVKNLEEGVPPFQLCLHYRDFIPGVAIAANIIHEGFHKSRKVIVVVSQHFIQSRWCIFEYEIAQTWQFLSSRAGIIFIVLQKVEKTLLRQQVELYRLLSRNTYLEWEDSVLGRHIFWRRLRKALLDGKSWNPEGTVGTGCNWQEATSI
UniProt Q9HC29, whole entry: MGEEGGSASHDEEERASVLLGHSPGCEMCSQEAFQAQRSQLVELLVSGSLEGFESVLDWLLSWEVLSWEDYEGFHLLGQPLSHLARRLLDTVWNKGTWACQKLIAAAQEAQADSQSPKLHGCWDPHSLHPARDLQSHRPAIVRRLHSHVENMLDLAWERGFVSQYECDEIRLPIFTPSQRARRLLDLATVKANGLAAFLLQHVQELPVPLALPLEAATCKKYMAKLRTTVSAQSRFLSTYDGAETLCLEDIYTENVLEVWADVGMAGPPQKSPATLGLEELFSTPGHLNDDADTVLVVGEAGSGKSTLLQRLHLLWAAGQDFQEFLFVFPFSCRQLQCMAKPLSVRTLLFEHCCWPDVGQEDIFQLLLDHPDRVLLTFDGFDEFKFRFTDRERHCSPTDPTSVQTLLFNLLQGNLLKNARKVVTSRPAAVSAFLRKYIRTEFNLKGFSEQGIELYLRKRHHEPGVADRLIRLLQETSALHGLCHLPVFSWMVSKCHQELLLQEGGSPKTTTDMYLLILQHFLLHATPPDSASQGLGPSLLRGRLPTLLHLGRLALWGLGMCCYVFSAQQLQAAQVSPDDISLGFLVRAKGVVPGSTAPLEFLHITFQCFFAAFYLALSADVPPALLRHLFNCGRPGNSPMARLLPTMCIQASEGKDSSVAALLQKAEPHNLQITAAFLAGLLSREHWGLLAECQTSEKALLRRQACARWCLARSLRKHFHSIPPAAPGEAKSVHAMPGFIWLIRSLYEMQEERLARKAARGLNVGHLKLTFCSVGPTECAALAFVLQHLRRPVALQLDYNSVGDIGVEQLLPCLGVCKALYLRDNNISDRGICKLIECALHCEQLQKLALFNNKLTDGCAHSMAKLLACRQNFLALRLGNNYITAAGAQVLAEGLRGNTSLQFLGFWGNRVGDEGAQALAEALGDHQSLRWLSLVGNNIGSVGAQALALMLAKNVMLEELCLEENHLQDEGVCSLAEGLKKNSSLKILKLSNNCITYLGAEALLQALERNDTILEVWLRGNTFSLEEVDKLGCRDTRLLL

Legend:
[1] = biological target: T1, Nucleotide-binding oligomerization domain-containing protein 1 (Mus musculus) (UniProt Q8BHB0); test: Antagonist activity at mouse NOD1 expressed in HEK-Blue cells assessed as decrease in SEAP secretion at 1 uM incubated for 3 hrs followed by C12-iE-DAP stimulation for 20 hrs by spectrophotometry relative to control; format: cell-based
T1 sequence (whole entry): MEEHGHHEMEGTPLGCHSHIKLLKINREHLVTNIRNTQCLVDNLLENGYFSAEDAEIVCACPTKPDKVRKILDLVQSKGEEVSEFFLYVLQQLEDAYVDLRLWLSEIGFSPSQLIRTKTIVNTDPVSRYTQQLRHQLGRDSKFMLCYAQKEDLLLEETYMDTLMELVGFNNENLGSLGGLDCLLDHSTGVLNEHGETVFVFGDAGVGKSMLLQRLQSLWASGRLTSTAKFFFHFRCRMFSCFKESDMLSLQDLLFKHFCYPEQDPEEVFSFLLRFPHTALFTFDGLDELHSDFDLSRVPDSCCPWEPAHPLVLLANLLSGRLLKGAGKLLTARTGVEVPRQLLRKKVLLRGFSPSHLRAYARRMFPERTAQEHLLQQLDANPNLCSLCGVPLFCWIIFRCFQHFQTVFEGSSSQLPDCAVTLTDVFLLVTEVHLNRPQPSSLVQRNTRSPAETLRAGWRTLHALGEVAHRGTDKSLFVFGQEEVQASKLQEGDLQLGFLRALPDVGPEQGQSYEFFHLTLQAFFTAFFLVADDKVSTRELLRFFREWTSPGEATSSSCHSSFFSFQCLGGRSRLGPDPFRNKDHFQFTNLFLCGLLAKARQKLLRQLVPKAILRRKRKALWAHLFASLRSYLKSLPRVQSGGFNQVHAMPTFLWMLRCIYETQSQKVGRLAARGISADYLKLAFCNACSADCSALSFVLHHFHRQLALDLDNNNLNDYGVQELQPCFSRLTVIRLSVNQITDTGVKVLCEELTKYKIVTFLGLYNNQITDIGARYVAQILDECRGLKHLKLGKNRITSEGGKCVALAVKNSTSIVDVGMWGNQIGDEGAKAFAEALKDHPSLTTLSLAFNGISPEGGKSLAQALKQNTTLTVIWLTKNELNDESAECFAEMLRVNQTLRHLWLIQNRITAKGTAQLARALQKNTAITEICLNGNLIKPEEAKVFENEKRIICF

[2] = biological target: T1, Nucleotide-binding oligomerization domain-containing protein 1 (Mus musculus); test: Antagonist activity at mouse NOD1 expressed in HEK-Blue cells assessed as decrease in SEAP secretion at 5 uM incubated for 3 hrs followed by C12-iE-DAP stimulation for 20 hrs by spectrophotometry relative to control; format: cell-based
[3] = biological target: Receptor-interacting serine/threonine-protein kinase 2 (Homo sapiens) (UniProt O43353); test: Inhibition of RIP2 (unknown origin) at 10 uM relative to control
[4] = biological target: Toll-like receptor 2 (Homo sapiens) (UniProt O60603); test: Inhibition of human TLR2 at 1 uM relative to control
[5] = biological target: Toll-like receptor 4 (Homo sapiens) (UniProt O00206); test: Inhibition of human TLR4 at 1 uM relative to control
[6] = biological target: T2, Nucleotide-binding oligomerization domain-containing protein 2 (Mus musculus) (UniProt Q8K3Z0); test: Inhibition of mouse NOD2 at 1 uM relative to control
T2 sequence (whole entry): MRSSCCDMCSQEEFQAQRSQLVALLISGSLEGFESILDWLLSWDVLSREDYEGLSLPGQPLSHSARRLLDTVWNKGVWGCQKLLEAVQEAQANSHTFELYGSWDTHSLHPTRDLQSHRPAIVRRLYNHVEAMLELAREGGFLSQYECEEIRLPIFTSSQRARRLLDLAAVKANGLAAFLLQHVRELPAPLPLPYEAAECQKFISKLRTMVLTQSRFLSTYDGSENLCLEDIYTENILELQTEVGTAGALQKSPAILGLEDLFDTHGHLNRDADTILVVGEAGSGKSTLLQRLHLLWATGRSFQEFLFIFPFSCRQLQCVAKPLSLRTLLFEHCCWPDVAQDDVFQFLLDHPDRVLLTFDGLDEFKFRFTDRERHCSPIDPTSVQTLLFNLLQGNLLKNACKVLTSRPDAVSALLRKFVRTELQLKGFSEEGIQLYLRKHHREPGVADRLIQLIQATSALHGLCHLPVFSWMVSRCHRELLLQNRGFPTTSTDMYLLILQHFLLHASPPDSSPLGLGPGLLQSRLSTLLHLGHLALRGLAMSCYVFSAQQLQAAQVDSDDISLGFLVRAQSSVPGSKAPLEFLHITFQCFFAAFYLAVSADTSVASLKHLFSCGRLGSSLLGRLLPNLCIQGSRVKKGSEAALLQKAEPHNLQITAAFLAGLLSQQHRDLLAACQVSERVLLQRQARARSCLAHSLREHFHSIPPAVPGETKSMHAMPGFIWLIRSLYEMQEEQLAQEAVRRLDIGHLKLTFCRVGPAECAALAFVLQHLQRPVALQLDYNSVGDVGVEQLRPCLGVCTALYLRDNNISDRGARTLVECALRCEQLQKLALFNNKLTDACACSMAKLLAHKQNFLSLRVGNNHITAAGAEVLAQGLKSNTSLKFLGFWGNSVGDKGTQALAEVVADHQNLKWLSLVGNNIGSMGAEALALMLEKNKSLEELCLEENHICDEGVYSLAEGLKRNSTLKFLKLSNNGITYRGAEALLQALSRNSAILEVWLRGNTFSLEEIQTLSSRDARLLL

[7] = biological target: Nucleotide-binding oligomerization domain-containing protein 2 (Homo sapiens, UniProt Q9HC29); test: Inhibition of human NOD2 at 1 uM relative to control
[8] = biological target: T3, Toll-like receptor 9 (Homo sapiens) (UniProt Q9NR96); test: Inhibition of human TLR9 at 1 uM relative to control
T3 sequence (whole entry): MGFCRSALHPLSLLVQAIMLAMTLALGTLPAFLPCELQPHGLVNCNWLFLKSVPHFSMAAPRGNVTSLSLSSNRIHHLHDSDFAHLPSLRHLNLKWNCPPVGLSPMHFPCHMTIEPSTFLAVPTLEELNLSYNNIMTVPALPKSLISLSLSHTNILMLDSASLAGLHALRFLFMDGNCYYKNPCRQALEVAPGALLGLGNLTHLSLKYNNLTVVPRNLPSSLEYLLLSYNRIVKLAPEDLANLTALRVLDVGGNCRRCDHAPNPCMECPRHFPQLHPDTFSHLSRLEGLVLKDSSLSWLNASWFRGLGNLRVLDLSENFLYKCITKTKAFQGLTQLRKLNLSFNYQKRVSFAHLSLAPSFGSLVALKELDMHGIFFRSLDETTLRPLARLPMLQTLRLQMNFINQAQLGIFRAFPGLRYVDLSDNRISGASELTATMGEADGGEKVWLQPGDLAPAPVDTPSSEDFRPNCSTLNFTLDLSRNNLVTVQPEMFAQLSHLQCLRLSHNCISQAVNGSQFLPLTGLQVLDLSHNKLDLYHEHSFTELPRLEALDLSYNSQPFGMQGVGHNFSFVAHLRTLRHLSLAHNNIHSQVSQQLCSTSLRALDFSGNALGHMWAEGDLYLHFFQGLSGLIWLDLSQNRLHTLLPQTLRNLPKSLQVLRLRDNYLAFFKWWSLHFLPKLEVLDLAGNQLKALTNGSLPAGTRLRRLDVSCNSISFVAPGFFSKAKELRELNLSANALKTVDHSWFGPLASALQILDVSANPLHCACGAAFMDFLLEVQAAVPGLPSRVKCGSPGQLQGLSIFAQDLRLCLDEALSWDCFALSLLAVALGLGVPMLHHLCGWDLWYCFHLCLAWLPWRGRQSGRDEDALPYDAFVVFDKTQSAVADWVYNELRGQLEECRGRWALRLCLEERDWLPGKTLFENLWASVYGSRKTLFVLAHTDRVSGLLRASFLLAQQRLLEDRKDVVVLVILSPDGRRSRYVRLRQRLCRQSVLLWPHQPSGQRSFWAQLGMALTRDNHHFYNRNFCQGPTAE

[9] = HEK-Blue mNOD1, filed as antagonist, time 23.0 hrs

O=c1c2ccncc2nc(Cl)n1-c1ccc(Cl)c(NS(=O)(=O)c2ccc([N+](=O)[O-])cc2F)c1
inhibition [1, 9]: 87.9%

O=c1c2cc(C(F)(F)F)ccc2nc(Cl)n1-c1ccc(Cl)c(NS(=O)(=O)c2ccccc2F)c1
inhibition [1, 9]: 71.2%

Cc1nc2cnccc2c(=O)n1-c1ccc(Cl)c(NS(=O)(=O)c2ccccc2F)c1
inhibition ([1]; HEK-Blue mNOD1, time 23.0 hrs): 0%

Cc1noc(C)c1S(=O)(=O)Nc1cc(-n2c(Cl)nc3cnc(Cl)cc3c2=O)ccc1Cl
inhibition [1, 9]: 72.9%

CSc1nc2ccc(Cl)cc2c(=O)n1-c1ccc(Cl)c(NS(=O)(=O)c2ccccc2F)c1
inhibition ([2]; HEK-Blue mNOD1, time 23.0 hrs): 31.9%

O=c1c2cc(Cl)ncc2nc(Cl)n1-c1ccc(Cl)c(NS(=O)(=O)c2cccnc2)c1
inhibition [1, 9]: 69.8%

CS(=O)(=O)c1ccc2nc(Cl)n(-c3ccc(Cl)c(NS(=O)(=O)c4ccccc4C#N)c3)c(=O)c2c1
inhibition [3]: < 10%
inhibition [4]: 12.7%
inhibition [5]: 13.3%
inhibition [6]: 27.4%
inhibition [1, 9]: 75.8%
inhibition [7]: 25.2%
inhibition [8]: 6.1%

O=c1c2ccncc2nc(F)n1-c1ccc(Cl)c(NS(=O)(=O)c2ccccc2F)c1
inhibition ([1]; HEK-Blue mNOD1, time 23.0 hrs): 13.6%

O=c1c2cc(Cl)c(Cl)cc2nc(Cl)n1-c1ccc(Cl)c(NS(=O)(=O)c2ccccc2F)c1
inhibition [1, 9]: 49.7%

O=c1c2cc(Cl)ccc2nc(F)n1-c1ccc(Cl)c(NS(=O)(=O)c2ccccc2F)c1
inhibition [2, 9]: 43.2%

O=c1c2cc(Cl)ncc2nc(Cl)n1-c1ccc(Cl)c(NS(=O)(=O)c2ccccc2Cl)c1
inhibition [1, 9]: 85.7%

O=c1c2cc(Cl)ccc2ncn1-c1ccc(Cl)c(NS(=O)(=O)c2ccccc2F)c1
inhibition ([2]; HEK-Blue mNOD1, time 23.0 hrs): < 10%

O=c1c2ccc([N+](=O)[O-])cc2nc(Cl)n1-c1ccc(Cl)c(NS(=O)(=O)c2ccccc2F)c1
inhibition ([1]; HEK-Blue mNOD1, time 23.0 hrs): 33.2%

O=c1c2cc(Cl)ncc2nc(Cl)n1-c1ccc(Cl)c(NS(=O)(=O)c2ccccc2C(F)(F)F)c1
inhibition ([1]; HEK-Blue mNOD1, time 23.0 hrs): 38.3%

O=c1c2cc(Cl)ncc2nc(Cl)n1-c1ccc(Cl)c(NS(=O)(=O)c2ccc3c(c2)CCO3)c1
inhibition [1, 9]: 70.3%

O=c1c2nc(Cl)cnc2nc(Cl)n1-c1ccc(Cl)c(NS(=O)(=O)c2ccccc2F)c1
inhibition [1, 9]: 67.9%
